From ChEMBL document CHEMBL2311524, “Discovery of a potent and selective free fatty acid receptor 1 agonist with low lipophilicity and high oral bioavailability” (J Med Chem, 2013)

Sequences of proteins named here, by UniProt entry; tags and fusion partners are left off.
UniProt O14842, whole entry: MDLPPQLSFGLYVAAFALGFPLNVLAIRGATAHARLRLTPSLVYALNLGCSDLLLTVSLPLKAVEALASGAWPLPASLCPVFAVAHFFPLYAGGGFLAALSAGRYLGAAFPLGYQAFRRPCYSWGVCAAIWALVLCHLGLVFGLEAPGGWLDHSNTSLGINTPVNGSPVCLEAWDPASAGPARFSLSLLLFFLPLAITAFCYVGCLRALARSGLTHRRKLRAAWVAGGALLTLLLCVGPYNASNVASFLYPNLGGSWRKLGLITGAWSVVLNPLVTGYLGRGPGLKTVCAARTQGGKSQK

Target: Free fatty acid receptor 1 (Homo sapiens, UniProt O14842)
Assay: Agonist activity at human FFA1 assessed as calcium mobilization measured for 50 intervals of 0.4 secs by microplate reader analysis relative to TUG-20
Format: functional

## N#CCc1ccccc1C#Cc1ccc(CCC(=O)O)cc1
  Activity: 103%
